Structures are written as SMILES.

The chains behind the UniProt entries cited, without tags or fusion partners.
UniProt P25099, whole entry: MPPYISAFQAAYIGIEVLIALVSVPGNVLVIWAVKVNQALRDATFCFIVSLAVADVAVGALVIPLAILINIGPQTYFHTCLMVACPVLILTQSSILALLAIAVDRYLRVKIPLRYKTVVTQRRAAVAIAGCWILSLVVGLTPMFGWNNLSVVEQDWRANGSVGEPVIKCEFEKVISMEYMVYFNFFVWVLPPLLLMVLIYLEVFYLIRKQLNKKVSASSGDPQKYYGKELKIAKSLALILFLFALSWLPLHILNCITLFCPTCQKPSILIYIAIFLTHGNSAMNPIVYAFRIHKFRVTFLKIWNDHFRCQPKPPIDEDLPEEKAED

For this experiment, the target named is Adenosine receptor A1 (Rattus norvegicus, UniProt P25099). The class given is cell membranes, Cerebral cortex, Membrane.

In the case of `CCn1c(=O)c2nc(-c3ccc(OCC(=O)NCCNC(=O)[C@@H](N)CCCCN)cc3)[nH]c2n(CC)c1=O`, the affinity corresponds to a Ki of 9.4 nM.

As a reminder, the Ki is a dissociation constant, usually derived from enzyme kinetics or from competition with a known ligand. Read a high Ki as weaker binding.

The record behind these values is ChEMBL document CHEMBL1123584, “Xanthine functionalized congeners as potent ligands at A2-adenosine receptors” (J Med Chem, 1987).
